Consider two substances from patent US20220381657A1, “METHOD FOR PREPARING BIOLOGICAL MATERIAL HAVING EXCELLENT LIGHT-TRANSMITTING PROPERTY” (RIKEN, priority 2016, published 2022).

The assay deals with fixed brain tissue suspension. The assay is described as follows: 1st delipidation assay: solubilization of fixed brain tissue suspension, turbidity at 600 nm. On the set-up: species or system mice. The following applies: Table 1; 10 wt % chemical, fixed mouse brain suspension, 37° C. overnight; PBS = 1.000.

As for “Decyldimethyl(3- sulfopropyl)ammonium [#0651]”, the “1st delipidation assay Relative OD600” value was 0.244. The same measure for “Dodecyldimethyl(3- sulfopropyl)ammonium [#0661]”: 0.258.
